In patent US6737397B1, “Control of cancer growth through the interaction of [MET5]-enkephalin and the zeta receptor” (The Penn State Research Foundation, priority 1996, dated 2004):
Counter-ions that a name gives are not always drawn. Like-named read-outs stand apart in the source and are kept apart here.

Target: T1, ζ-opioid receptor (Homo sapiens, UniProt Q9NZT2)
T1 sequence (Q9NZT2 1-677): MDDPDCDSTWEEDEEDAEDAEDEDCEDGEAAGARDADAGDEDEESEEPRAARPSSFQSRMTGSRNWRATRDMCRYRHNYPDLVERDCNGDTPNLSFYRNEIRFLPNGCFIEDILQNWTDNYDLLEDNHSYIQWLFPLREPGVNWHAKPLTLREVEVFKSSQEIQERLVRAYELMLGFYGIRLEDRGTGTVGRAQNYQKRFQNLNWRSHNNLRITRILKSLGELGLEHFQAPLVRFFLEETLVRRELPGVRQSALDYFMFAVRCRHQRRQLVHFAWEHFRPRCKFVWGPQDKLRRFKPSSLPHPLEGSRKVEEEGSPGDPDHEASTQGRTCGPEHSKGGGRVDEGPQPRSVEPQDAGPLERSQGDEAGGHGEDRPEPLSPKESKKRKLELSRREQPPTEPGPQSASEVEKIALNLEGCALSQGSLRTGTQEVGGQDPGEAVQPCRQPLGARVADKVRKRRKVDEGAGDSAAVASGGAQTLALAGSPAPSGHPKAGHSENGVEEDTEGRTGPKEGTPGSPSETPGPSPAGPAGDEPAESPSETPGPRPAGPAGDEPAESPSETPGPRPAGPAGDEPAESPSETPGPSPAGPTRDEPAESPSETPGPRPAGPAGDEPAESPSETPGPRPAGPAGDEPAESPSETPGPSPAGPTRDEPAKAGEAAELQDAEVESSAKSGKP
Assay: Competition for binding of [3H][Met5]enkephalin (4.0 nM) in nuclear homogenates of HT-29 human colon tumors
Parameters: from tissue; host or cells: HT-29 human colon tumor xenografts grown in athymic nude mice; nuclear (P1) and other subcellular fractions

| SMILES | IC50 (4.0 nM [3H][Met5]enkephalin) [nM] | Ki (calculated from IC50 by Cheng and Prusoff) [nM] | more potent than (+)-naloxone in displacing [3H]-[Met5]-enkephalin (stereoisomers) | IC50 [nM] | Ki [nM] |
| --- | --- | --- | --- | --- | --- |
| C=CCN1CC[C@]23c4c5ccc(O)c4O[C@H]2C(=O)CC[C@@]3(O)[C@H]1C5 [naloxone] | 115 ± 5 | 88.5 ± 3.9 | 100,000 fold | – | – |
| C=CCN1CC[C@@]23c4c5ccc(O)c4O[C@@H]2C(=O)CC[C@]3(O)[C@@H]1C5 [(+)-Naloxone hydrochloride, (+)-naloxone hydrochloride] | – | – | – | > 10000 | > 10000 |
